This data set in a line: Solubility in water of cationic phosphate binders (Table 1).

On to Calcium Gluconate, for which the “Hydrophile?” value is “Yes”.

The values are drawn from patent publication US7862836B2, “Phosphorus binder for treatment of kidney disease” (Biolink Life Sciences, Inc., priority 2005, dated 2011).
